Laboratory results as given in paper PMC11312515, “Biochemical and Structural Characterization of a Novel Psychrophilic Laccase (Multicopper Oxidase) Discovered from Oenococcus oeni 229 (ENOLAB 4002)” (International Journal of Molecular Sciences, 2024).

Amino acid sequences for entries named in this document (tags omitted). Residues count along the entry.
UniProt Q04HQ8, 1-488: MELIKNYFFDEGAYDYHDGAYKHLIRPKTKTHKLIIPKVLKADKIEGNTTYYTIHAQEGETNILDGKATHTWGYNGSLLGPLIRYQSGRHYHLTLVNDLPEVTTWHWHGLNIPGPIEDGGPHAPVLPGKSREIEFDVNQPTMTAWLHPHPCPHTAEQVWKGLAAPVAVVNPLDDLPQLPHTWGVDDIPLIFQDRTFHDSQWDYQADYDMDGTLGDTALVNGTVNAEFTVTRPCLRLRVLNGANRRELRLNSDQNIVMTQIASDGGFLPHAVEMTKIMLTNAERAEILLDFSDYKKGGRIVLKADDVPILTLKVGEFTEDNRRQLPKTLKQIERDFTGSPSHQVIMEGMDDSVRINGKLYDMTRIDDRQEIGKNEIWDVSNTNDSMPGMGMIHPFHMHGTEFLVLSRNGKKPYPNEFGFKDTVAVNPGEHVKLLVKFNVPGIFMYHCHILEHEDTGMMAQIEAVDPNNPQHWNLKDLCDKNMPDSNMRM

Molecular target: LcOe 229 (Oenococcus oeni, UniProt Q04HQ8)
Experiment: ABTS oxidation at OD420, […] min, residual activity
Conditions: 2 mM ABTS, 0.1 mM CuSO4, McIlvaine buffer pH 2.5

`[N-]=[N+]=N` was tested. Which “% residual activity at 1 mM” value did it give?
Its value is less than 15%.
